Measured values: patent EP4837910A1, “ISOXAZOLINE COMPOUND AND PREPARATION METHOD THEREFOR, HERBICIDAL COMPOSITION, AND USE” (dated 2026)

Columns and labels:
[1] = test system: Monocotyledonous and dicotyledonous weed; test: Pre-emergence test on weeds (greenhouse, sprayed immediately after sowing); details: Dosage 240 g a.i./ha, after 4 weeks in greenhouse, fresh weight control rate
Zea mays = test: Pre-emergence test, crop damage (greenhouse, sprayed immediately after sowing); details: Dosage 240 g a.i./ha, after 4 weeks in greenhouse, fresh weight control rate
Source text: Monocotyledonous and dicotyledonous weed seeds as well as major crop seeds were placed in plastic pots filled with soil and then covered with 0.5-2 cm of soil. The test compounds of the present invention were individually dissolved with acetone, then added with Tween® 80, diluted with certain amount of water to obtain solutions of certain concentrations, and sprayed immediately after sowing. After drug application, the experimental results on weeds were observed after 4 weeks of cultivation in a greenhouse. Table 3 Results of pre-emergence test on weeds

SMILES | activity level of plant damage (growth control rate), Digitaria sanguinalis [1] | activity level of plant damage (growth control rate), Lolium multiflorum [1] | activity level of plant damage (growth control rate), Zea mays (Zea mays) | activity level of plant damage (growth control rate), Descurainia sophia [1] | activity level of plant damage (growth control rate), Setaria viridis [1]
CON(C)C(=O)[C@H](C)NC(=O)C1(C)CC(c2cc(F)cc(F)c2)=NO1 (stereo partly shown) | 8 (Level 8: growth control rate greater than or equal to 90% and less than 100%) | 9 | 2 (Level 2: growth control rate greater than or equal to 10% and less than 20%) |  | 
C=C[C@]1(C(=O)N[C@@H](CCCCN)C(=O)N(C)OC)CC(c2cc(F)cc(F)c2)=NO1 | 5 (Level 5: growth control rate greater than or equal to 50% and less than 70%) |  | 1 (Level 1: growth control rate less than 10%) |  | 
C=C[C@@]1(C(=O)N[C@@H](C)C(=O)NOC)CC(c2cc(F)cc(OC(F)(F)F)c2)=NO1 |  | 7 (Level 7: growth control rate greater than or equal to 80% and less than 90%) | 0 | 5 (Level 5: growth control rate greater than or equal to 50% and less than 70%) | 
C=C[C@]1(C(=O)N[C@@H](C)C(=O)NOCC)CC(c2cc(F)cc(OC(F)(F)F)c2)=NO1 |  | 9 | 1 (Level 1: growth control rate less than 10%) |  | 
C=C(C)[C@]1(C(=O)N[C@@H](C)C(=O)N(C)OC)CC(c2cc(Br)cc(Br)c2)=NO1 | 9 | 9 | 0 |  | 9
C=C[C@]1(C(=O)N[C@@H](CC(C)C)C(=O)N(C)OC)CC(c2cc(F)cc(F)c2)=NO1 |  | 7 (Level 7: growth control rate greater than or equal to 80% and less than 90%) | 0 |  | 
CC[C@@]1(C(=O)N[C@@H](C)C(=O)NOC)CC(c2cc(F)cc(Br)c2)=NO1 |  | 8 (Level 8: growth control rate greater than or equal to 90% and less than 100%) | 0 |  | 
C=CC1(C(=O)N[C@@H](C)C(=O)N(C)OC)CC(c2ccc(F)c(Cl)c2)=NO1 (stereo partly shown) |  | 5 (Level 5: growth control rate greater than or equal to 50% and less than 70%) | 0 |  | 
C=C[C@]1(C(=O)N[C@@H](C)C(=O)N(C)OC)CC(c2cc(F)c(F)c(F)c2)=NO1 |  | 9 | 2 (Level 2: growth control rate greater than or equal to 10% and less than 20%) |  | 
C=C[C@]1(C(=O)N[C@@H](C)C(=O)N(C)OC(C)C)CC(c2cc(F)cc(F)c2)=NO1 | 5 (Level 5: growth control rate greater than or equal to 50% and less than 70%) | 7 (Level 7: growth control rate greater than or equal to 80% and less than 90%) | 2 (Level 2: growth control rate greater than or equal to 10% and less than 20%) |  | 5 (Level 5: growth control rate greater than or equal to 50% and less than 70%)
C=C[C@]1(C(=O)N[C@@H](C)C(=O)NOCCCC(=O)OC)CC(c2cc(F)cc(F)c2)=NO1 |  |  | 0 | 9 | 
CON(C)C(=O)[C@H](C)NC(=O)[C@]1(CF)CC(c2cc(F)cc(F)c2)=NO1 | 5 (Level 5: growth control rate greater than or equal to 50% and less than 70%) | 9 | 2 (Level 2: growth control rate greater than or equal to 10% and less than 20%) | 9 | 
C=C[C@]1(C(=O)NC(CC)C(=O)N(C)OC)CC(c2cc(F)cc(F)c2)=NO1 (stereo partly shown) | 5 (Level 5: growth control rate greater than or equal to 50% and less than 70%) | 8 (Level 8: growth control rate greater than or equal to 90% and less than 100%) | 2 (Level 2: growth control rate greater than or equal to 10% and less than 20%) |  | 8 (Level 8: growth control rate greater than or equal to 90% and less than 100%)
C=C[C@]1(C(=O)N[C@H](C)C(=O)NOC)CC(c2cc(F)cc(F)c2)=NO1 |  | 8 (Level 8: growth control rate greater than or equal to 90% and less than 100%) | 1 (Level 1: growth control rate less than 10%) |  | 
C=C[C@]1(C(=O)N[C@@H](C)C(=O)N(C)OCc2ccccc2)CC(c2cc(F)cc(F)c2)=NO1 |  | 5 (Level 5: growth control rate greater than or equal to 50% and less than 70%) | 1 (Level 1: growth control rate less than 10%) | 7 (Level 7: growth control rate greater than or equal to 80% and less than 90%) | 
C=C[C@]1(C(=O)N[C@@H](C)C(=O)N(C)OCCON=C(C)C)CC(c2cc(F)cc(F)c2)=NO1 |  | 9 | 0 |  | 
CONC(=O)[C@H](C)NC(=O)[C@@]1(CF)CC(c2cc(F)cc(F)c2)=NO1 |  | 6 (Level 6: growth control rate greater than or equal to 70% and less than 80%) | 2 (Level 2: growth control rate greater than or equal to 10% and less than 20%) | 6 (Level 6: growth control rate greater than or equal to 70% and less than 80%) | 
C=C[C@]1(C(=O)N[C@H](C(=O)N(C)OC)C2CC2)CC(c2cc(F)cc(F)c2)=NO1 | 9 | 9 | 0 | 9 | 9
C=C[C@]1(C(=O)N[C@@H](C)C(=O)NOCCC(=O)OC)CC(c2cc(F)cc(F)c2)=NO1 |  | 9 | 0 | 7 (Level 7: growth control rate greater than or equal to 80% and less than 90%) | 
C=C[C@]1(C(=O)N[C@@H](C)C(=O)N(CC)OCC)CC(c2cc(F)cc(F)c2)=NO1 | 9 | 9 | 0 | 9 | 9
C=C[C@]1(C(=O)N[C@H](C(=O)N(C)OC)C(C)CC)CC(c2cc(F)cc(F)c2)=NO1 (stereo partly shown) | 5 (Level 5: growth control rate greater than or equal to 50% and less than 70%) | 6 (Level 6: growth control rate greater than or equal to 70% and less than 80%) | 0 |  | 7 (Level 7: growth control rate greater than or equal to 80% and less than 90%)
C=C[C@@]1(C(=O)N[C@H](C)C(=O)NOC)CC(c2cc(F)cc(C(F)(F)F)c2)=NO1 |  | 5 (Level 5: growth control rate greater than or equal to 50% and less than 70%) | 0 | 9 | 
C=C[C@]1(C(=O)N[C@@H](Cc2ccccc2)C(=O)N(C)OC)CC(c2cc(F)cc(F)c2)=NO1 | 5 (Level 5: growth control rate greater than or equal to 50% and less than 70%) |  | 0 |  | 
C=C[C@]1(C(=O)N[C@H](C)C(=O)NOC)CC(c2cc(F)cc(Cl)c2)=NO1 | 8 (Level 8: growth control rate greater than or equal to 90% and less than 100%) | 9 | 0 | 9 | 8 (Level 8: growth control rate greater than or equal to 90% and less than 100%)
C=C[C@]1(C(=O)N[C@@H](C)C(=O)N(C)OCCBr)CC(c2cc(F)cc(F)c2)=NO1 |  | 9 | 0 | 7 (Level 7: growth control rate greater than or equal to 80% and less than 90%) | 
CON(C)C(=O)[C@H](C)NC(=O)[C@@]1(C(F)(F)F)CC(c2cc(F)cc(F)c2)=NO1 | 8 (Level 8: growth control rate greater than or equal to 90% and less than 100%) |  | 2 (Level 2: growth control rate greater than or equal to 10% and less than 20%) |  | 8 (Level 8: growth control rate greater than or equal to 90% and less than 100%)
CON(C)C(=O)[C@H](C)NC(=O)[C@@]1(C2CC2)CC(c2cc(F)cc(F)c2)=NO1 | 8 (Level 8: growth control rate greater than or equal to 90% and less than 100%) | 9 | 0 |  | 9
C=C[C@]1(C(=O)N[C@@H](Cc2ccc(O)cc2)C(=O)N(C)OC)CC(c2cc(F)cc(F)c2)=NO1 |  | 7 (Level 7: growth control rate greater than or equal to 80% and less than 90%) | 0 |  | 
